Reference: article PMC3857906, “Ligand-Specific Regulation of the Endogenous Mu-Opioid Receptor by Chronic Treatment with Mu-Opioid Peptide Agonists” (BioMed Research International, 2013)

Chains of the proteins cited; added tags and fusions are not shown.
UniProt P33535, whole entry: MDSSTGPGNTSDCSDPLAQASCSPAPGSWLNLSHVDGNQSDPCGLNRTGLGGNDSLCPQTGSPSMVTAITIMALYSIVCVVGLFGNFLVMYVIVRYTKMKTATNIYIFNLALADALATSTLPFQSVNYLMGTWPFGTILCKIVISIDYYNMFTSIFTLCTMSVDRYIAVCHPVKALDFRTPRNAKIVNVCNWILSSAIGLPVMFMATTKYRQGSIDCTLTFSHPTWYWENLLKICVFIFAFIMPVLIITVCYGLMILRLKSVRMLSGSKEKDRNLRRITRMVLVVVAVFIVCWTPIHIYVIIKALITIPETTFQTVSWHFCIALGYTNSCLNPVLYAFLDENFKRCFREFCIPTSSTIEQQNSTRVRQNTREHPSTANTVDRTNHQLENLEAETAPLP

Molecular target: T1, mu-opioid receptors (coupling to G-proteins) (Rattus norvegicus, UniProt P33535)
T1 construct: fresh forebrains of four rats were pooled, gently homogenized; from tissue; host or cells: rat forebrain, synaptic plasma membrane (SPM) and microsomal (MI) fractions, from vehicle- or peptide-treated animals
Experiment: DAMGO-stimulated [35S]GTPγS binding in rat brain subcellular fractions (SPM, MI) after in vivo chronic opioid peptide treatment
Type: biochemical
Method: The peptides were dissolved in artificial cerebrospinal fluid (CSF) and injected in a volume of 2 μL. […] Animals were killed 16 hrs after drug treatments by decapitation immediately followed by subcellular fractionation.
Subcellular fractions of rat brains were purified as published. Briefly, fresh forebrains of four rats were pooled, gently homogenized in 10 volumes (v/w) of ice-cold buffer (5 mM Tris-HCl pH 7.4, 50 μM CaCl2, 0.5 mM dithiothreitol), and supplemented with 10% sucrose. All sucrose solutions were made in the above buffer. The homogenate was spun at 1,000 ×g for 10 min. The resulting pellet was resuspended in the above buffer and spun again. The combined supernatants were spun at 12,000 ×g for 20 min. The pellets were suspended in 10% sucrose and subjected to consecutive centrifugations at 20,000 ×g for 25 min and 14,000 ×g for 20 min twice resulting in crude synaptic plasma membranes (SPM). The resulting pellets were lysed followed by fractionation on a 10%, 28.5%, and 34% sucrose density step gradient that was spun at 100,000 ×g for 2 h. Highly enriched SPMs were obtained from the 28/34% interface. Crude microsomal (MI) fractions were obtained from the 12,000 ×g supernatant by consecutive centrifugations at 20,000 ×g for 25 min and 100,000 ×g for 1 h. MI fractions were purified on a 10% and 28.5% sucrose step gradient centrifuged at 100,000 ×g for 2 h and collected at 10/28.5% interface. SPM and MI fractions were diluted threefold with 50 mM Tris-HCl buffer and pelleted at 100,000 ×g for 1 h to remove sucrose. The resulting pellets were taken up in 50 mM Tris-HCl (pH 7.4) buffer to yield in 0.3–0.8 mg membrane protein/ml and were freshly used.
The assay was performed as published with slight modifications. Briefly, rat brain membrane fractions (≈10 μg of protein) were incubated with [^35S]GTPγS (0.05 nM) and 5-6 concentrations (10^−9−10^−4 M) of opioid peptides in the presence of 100 μM GDP in Tris-EGTA (50 mM Tris-HCl, 1 mM EGTA and 5 mM MgCl2; pH 7.4) buffer in a total volume of 1 mL for 60 min at 30°C. Nonspecific binding was determined with 10 μM GTPγS and subtracted. […] Filters were rapidly washed with 3 × 5 mL ice-cold 50 mM Tris-HCl (pH 7.4) buffer, air-dried, and counted in a toluene-based scintillation cocktail in a Wallac 1409 scintillation counter (Wallac, Turku, Finland). […] Curves were constructed and analyzed by fitting sigmoidal dose-response curves using the GraphPad Prism 4 program (GraphPad Prism Software Inc) to obtain potency (EC50, concentration of the ligand to give half-maximal effect) and efficacy (E max, % maximal stimulation over basal activity) values. Basal activities were measured in the absence of opioid ligands and set as 0%. […]

## C[C@@H](NC(=O)[C@@H](N)Cc1ccc(O)cc1)C(=O)NCC(=O)N(C)[C@@H](Cc1ccccc1)C(=O)NCCO [DAMGO, Tyr-D-Ala-Gly-(NMe)Phe-Gly-ol]
EC50 of DAMGO added in vitro, MI of rats chronically treated icv with the named peptide, read-out: EC50 (nM) MI Treated
  EC50: 86 ± 2 nM
EC50 of DAMGO added in vitro, SPM of rats chronically treated icv with the named peptide, read-out: EC50 (nM) SPM Treated
  EC50: 107 ± 14 nM
MI of vehicle administered rats, read-out: potency (EC50) of DAMGO in control MI
  EC50: 100 ± 18 nM
SPM of vehicle administered rats, read-out: potency (EC50) of DAMGO in control SPM
  EC50: 44 ± 6 nM

Read-outs that look alike come from different tables or passages of the source.
